# Measured values as given in patent US4824860A, “Treatment of Parkinsons disease” (priority 1987, dated 1989).
# Test system: 5HT2 receptors
# Assay: Receptor binding studies using rat brain: 5HT2
row,Structure (SMILES),affinity for 5HT2 receptors
1,"CC(C)C[C@H]1C(=O)N2CCC[C@H]2[C@]2(O)O[C@](NC(=O)[C@@H]3C=C4c5cccc6[nH]c(Br)c(c56)C[C@H]4N(C)C3)(C(C)C)C(=O)N12 [bromocriptine, reference compound]",showed affinity
2,CCCN1C[C@H](CSC)C[C@@H]2c3cccc4[nH]cc(c34)C[C@H]21 [pergolide],showed affinity
